The results in this text go back to patent US9199927B2, “Guanidinobenzoic acid compound” (Astellas Pharma Inc., priority 2011, dated 2015).

Chains of the proteins cited; added tags and fusions are not shown. Residues count along the entry.
UniProt P07477, 24-247: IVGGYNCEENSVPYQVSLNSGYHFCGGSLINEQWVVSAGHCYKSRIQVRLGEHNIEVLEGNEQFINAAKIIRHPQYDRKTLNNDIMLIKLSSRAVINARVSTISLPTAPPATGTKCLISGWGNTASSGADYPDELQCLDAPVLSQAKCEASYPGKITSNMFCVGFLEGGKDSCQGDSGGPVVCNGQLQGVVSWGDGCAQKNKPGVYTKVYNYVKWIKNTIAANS

Experiment [1] concerns the target mouse trypsin (m-trypsin). Description: Inhibitory activity of trypsin enzyme (mouse trypsin purified from small intestine contents, BZiPAR fluorescent substrate). The format is biochemical. Particulars: mouse trypsin diluted 1/50, BZiPAR substrate, 30 minutes at room temperature. The text has this:
(§1) 1. Inhibitory Activity of Trypsin Enzyme in Humans and Mice
(§2) In the experiment, human recombinant trypsin (r-h trypsin; manufactured by WAKO, cat. #206-17171) and mouse trypsin (m-trypsin; purified from the mouse small intestine contents by the present Company) were used.
The method to extract the trypsin from the mouse small intestine is shown below.
The small intestine contents and the gastrointestinal tract of 10 mice were suspended in PBS using Polytron and subjected to centrifugation at 15,000×g several times. The supernatant was mixed at 4° C. for 16 hours with a Benzamidine Sepharose 4 Fast Flow Resin (GE Healthcare: #17-5123-10). After washing the resin with PBS, m-trypsin was eluted with a glycine elution buffer (pH 3.0). It was confirmed by Western blot analysis that the purified fraction was recognized as Anti-mouse Trypsin Antibody (Santa Cruz Biotechnology, Inc.: sc-67388)).
(§3) The outline of the measurement method is shown below.
(§4) The compound was dissolved in dimethyl sulfoxide (DMSO), and diluted to an arbitrary concentration (A). A was 100-fold diluted with a buffer (0.1 M Tris (pH 8.0), 0.15 M NaCl, 10 mM CaCl2, 0.05% Brij38) (B). The r-h trypsin was diluted with a buffer to 0.088 μg/mL, and the m-trypsin was diluted with a buffer to 1/50 (C). […] The substrate solution of a substrate for the enzyme reaction, BZiPAR, (Rhodamine Reference Substrate) was diluted with a buffer to 5 μmol/L (D). B; 5 μL, C; 5 μL, and D; 10 μL were added to a 384-plate, and incubated at room temperature for 30 minutes. The fluorescent signals were detected with Ex/Em=497/520 using Tecan Safire Fluorometer. […] Based on the obtained inhibitory rates, IC50 values (nM) were calculated from the non-linear regression. The test was carried out in the same manner, using camostat as a control compound.
(§5) Ex in the table represents the Example No. as denoted below.

Experiment [2] concerns the target human recombinant trypsin (r-h trypsin) (Homo sapiens (Human), UniProt P07477). In words: Inhibitory activity of trypsin enzyme (human recombinant trypsin, BZiPAR fluorescent substrate). Particulars: human recombinant trypsin 0.088 μg/mL, 30 minutes at room temperature. The format is biochemical. The protocol: as §1, §2, §3, §4, §5

In the case of `N=C(N)Nc1ccc(C(=O)Oc2ccc(CC(=O)N[C@@H](Cc3ccc(F)cc3)C(=O)O)c(Cl)c2)cc1` [Example 14], the IC50 in experiment [1] was 220 pM; in experiment [2] it was 230 pM.
For `N=C(N)Nc1ccc(C(=O)Oc2ccc(CCC(=O)NCc3cccc(C(=O)O)c3)c(Cl)c2)cc1` [Example 20], in that order: 540 pM and 900 pM.
For `N=C(N)Nc1ccc(C(=O)Oc2ccc3cc(C(=O)N[C@@H](Cc4ccccc4)C(=O)O)[nH]c3c2)cc1` [Example 119], in that order: 7500 pM and 8600 pM.
With `COc1ccc(C[C@H](NC(=O)Cc2ccc(OC(=O)c3ccc(NC(=N)N)cc3)cc2Cl)C(=O)O)cc1` [Example 16], the IC50 in experiment [1] turned out to be 260 pM; in experiment [2] it was 230 pM.
For `N=C(N)Nc1ccc(C(=O)Oc2ccc3nc(C(=O)N[C@H](C(=O)O)c4ccccc4)ccc3c2)cc1` [Example 21], in that order: 170 pM and 260 pM.
The matching figures for `N=C(N)Nc1ccc(C(=O)Oc2ccc3nc(C(=O)N(CC(=O)O)Cc4ccc(CC(=O)O)cc4)ccc3c2)cc1` [Example 113]: 280 pM and 240 pM.
For `N=C(N)Nc1ccc(C(=O)Oc2ccc(CC(=O)N[C@@H](Cc3ccc(Cl)cc3)C(=O)O)c(Cl)c2)cc1` [Example 15], in that order: 190 pM and 200 pM.
Regarding `N=C(N)Nc1ccc(C(=O)Oc2ccc(CCC(=O)N(CC(=O)O)c3cccc(CC(=O)O)c3)c(Cl)c2)cc1` [Example 41], the IC50 in experiment [1] was 310 pM; in experiment [2], 320 pM.
The matching figures for `N=C(N)Nc1ccc(C(=O)Oc2ccc(CCC(=O)N[C@@H](CC(=O)O)c3ccccc3)c(Cl)c2)cc1` [Example 23]: 280 pM and 340 pM.
For `N=C(N)Nc1ccc(C(=O)Oc2ccc3nc(C(=O)N[C@@H](CC(=O)O)c4ccccc4)ccc3c2)cc1` [Example 28], in that order: 170 pM and 240 pM.
The matching figures for `N=C(N)Nc1ccc(C(=O)Oc2ccc(CCC(=O)N(CC(=O)O)Cc3csc(C(=O)O)c3)c(Cl)c2)cc1` [Example 63]: 410 pM and 430 pM.
On to `CC(C(=O)N(CC(=O)O)Cc1cccc(C(=O)O)c1)c1ccc(OC(=O)c2ccc(NC(=N)N)cc2)cc1Cl` (stereo not drawn) [Example 108], for which the IC50 in experiment [1] came out at 140 pM; in experiment [2], 190 pM.
